# Assay results published in ChEMBL document CHEMBL2311283, “Structural modifications to tetrahydropyridine-3-carboxylate esters en route to the discovery of M5-preferring muscarinic receptor orthosteric antagonists” (J Med Chem, 2013).
# Amino acid sequences for entries named in this document (tags omitted).
# UniProt P08912, whole entry: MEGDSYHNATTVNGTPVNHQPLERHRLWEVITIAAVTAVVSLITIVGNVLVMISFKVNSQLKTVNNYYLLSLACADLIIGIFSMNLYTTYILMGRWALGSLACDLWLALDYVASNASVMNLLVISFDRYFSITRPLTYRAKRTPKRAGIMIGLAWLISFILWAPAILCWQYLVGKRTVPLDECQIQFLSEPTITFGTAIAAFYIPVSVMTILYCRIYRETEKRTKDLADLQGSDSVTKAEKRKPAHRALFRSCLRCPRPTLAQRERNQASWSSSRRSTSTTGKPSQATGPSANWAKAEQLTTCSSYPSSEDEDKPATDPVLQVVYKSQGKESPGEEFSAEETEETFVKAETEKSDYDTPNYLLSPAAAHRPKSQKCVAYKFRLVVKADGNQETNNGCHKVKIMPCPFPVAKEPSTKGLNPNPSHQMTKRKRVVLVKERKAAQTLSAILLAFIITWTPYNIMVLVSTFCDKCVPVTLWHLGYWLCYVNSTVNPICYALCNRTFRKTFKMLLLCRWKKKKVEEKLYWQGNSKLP
# UniProt P08173, whole entry: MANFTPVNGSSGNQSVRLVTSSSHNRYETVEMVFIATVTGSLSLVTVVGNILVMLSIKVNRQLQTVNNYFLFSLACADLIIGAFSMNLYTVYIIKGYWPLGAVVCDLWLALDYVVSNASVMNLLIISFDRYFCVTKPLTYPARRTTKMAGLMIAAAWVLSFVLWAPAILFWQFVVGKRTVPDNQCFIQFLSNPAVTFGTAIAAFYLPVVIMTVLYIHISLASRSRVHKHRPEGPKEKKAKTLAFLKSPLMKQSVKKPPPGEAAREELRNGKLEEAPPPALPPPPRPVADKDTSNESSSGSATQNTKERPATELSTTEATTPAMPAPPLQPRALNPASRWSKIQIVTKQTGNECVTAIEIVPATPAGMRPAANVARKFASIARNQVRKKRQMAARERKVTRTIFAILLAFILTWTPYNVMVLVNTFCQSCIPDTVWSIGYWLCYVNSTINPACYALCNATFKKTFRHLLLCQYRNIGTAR
# UniProt P08172, whole entry: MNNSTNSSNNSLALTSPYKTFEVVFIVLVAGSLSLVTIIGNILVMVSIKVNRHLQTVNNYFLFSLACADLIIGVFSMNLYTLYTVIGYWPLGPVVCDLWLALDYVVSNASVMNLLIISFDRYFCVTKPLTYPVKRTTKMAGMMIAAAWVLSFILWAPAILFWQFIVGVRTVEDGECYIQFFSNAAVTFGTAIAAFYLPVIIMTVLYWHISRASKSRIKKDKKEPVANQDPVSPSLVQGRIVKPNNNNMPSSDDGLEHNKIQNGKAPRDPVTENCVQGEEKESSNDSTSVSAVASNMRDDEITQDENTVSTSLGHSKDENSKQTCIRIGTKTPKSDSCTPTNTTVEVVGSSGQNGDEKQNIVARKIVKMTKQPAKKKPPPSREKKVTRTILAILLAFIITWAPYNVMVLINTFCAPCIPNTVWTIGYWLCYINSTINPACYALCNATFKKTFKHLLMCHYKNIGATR
# Experiments:
# Assay type in all cases: cell-based
# [1] = target: Muscarinic acetylcholine receptor M5 (Homo sapiens, UniProt P08912); experiment: Displacement of [3H]NMS from human M5 muscarinic receptor expressed in CHO-K1 cells
# [2] = target: Muscarinic acetylcholine receptor M4 (Homo sapiens, UniProt P08173); experiment: Displacement of [3H]NMS from human M4 muscarinic receptor expressed in CHO-K1 cells
# [3] = target: Muscarinic acetylcholine receptor M2 (Homo sapiens, UniProt P08172); experiment: Displacement of [3H]NMS from human M2 muscarinic receptor expressed in CHO-K1 cells
smiles,measurement,setting,value
CN1[C@@H]2C[C@@H](OC(=O)[C@H](CO)c3ccccc3)C[C@H]1[C@@H]1O[C@@H]12 [SCOPOLAMINE],Ki,[1],0.0176 µM
same,Ki,[2],0.0369 µM
same,Ki,[3],0.0095 µM
